Patent US11447486B2, “2-amino-benzimidazole derivatives and their use as 5-lipoxygenase and/or prostaglandin E synthase inhibitors” (INSTITUT PASTEUR KOREA, priority 2014, dated 2022)
pEC50, pIC50: −log10 of the molar value.

Chains of the proteins cited; added tags and fusions are not shown.
UniProt P09917, whole entry: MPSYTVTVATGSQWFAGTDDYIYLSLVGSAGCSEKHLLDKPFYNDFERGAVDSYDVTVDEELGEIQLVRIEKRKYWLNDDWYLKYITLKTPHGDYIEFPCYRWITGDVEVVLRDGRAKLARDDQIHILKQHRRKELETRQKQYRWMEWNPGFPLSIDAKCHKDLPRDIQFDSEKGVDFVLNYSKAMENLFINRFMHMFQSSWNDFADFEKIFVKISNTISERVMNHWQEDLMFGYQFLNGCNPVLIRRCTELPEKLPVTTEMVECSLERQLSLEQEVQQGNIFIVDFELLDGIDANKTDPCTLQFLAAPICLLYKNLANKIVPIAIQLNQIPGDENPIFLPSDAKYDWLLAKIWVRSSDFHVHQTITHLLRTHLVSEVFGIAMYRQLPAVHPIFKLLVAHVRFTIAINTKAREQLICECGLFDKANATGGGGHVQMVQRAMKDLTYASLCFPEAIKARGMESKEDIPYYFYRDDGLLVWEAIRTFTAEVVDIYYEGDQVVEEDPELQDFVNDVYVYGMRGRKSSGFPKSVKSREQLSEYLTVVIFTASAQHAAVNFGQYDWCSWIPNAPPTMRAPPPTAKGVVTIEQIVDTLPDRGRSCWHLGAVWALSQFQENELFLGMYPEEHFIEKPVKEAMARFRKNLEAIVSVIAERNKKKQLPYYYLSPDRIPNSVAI

How the values were obtained:
[1] = tested on: Rat basophilic leukemia (RBL) cells; assay: LTB4 secretion assay in RBL (rat basophilic leukemia cells); conditions: read-out: RBL (EC50)
Method: Rat basophilic leukemia (RBL) cells (ATCC, Cat #CRL-2256) were maintained in EMEM (ATCC, Cat #30-2003) supplemented with 15% FBS. The day before RBL assay, cells were seeded at a concentration of 2×10^4 cells per well in 96-well plates. The media was replaced with 100 ul of EMEM supplemented with 0.5% FBS and compounds in dose response(5 nM to 100 uM) were added. After 15 min of pre-incubation at 37° C., arachidonic acid and calcium ionophore (A23187) were added to give a final concentration of 2.5 uM and 5 uM, respectively. After a further 10 min incubation at 37° C., culture supernatant was transferred and quantification of LTB4 was done with a Leukotriene B4 EIA kit (Cayman, Cat #520111) as instructed.

human 5-LOX = human 5-LOX (Homo sapiens, UniProt P09917); assay: 5-LOX enzyme activity, fluorescence method (5-HPETE, H2DCFDA); conditions: read-out: 5-LO (IC50)

pEC50 [1] | pIC50 (human 5-LOX) | Compound
< 4.70 | > 6.00 | CC(C)(Nc1ccc2[nH]c(N3CCC(Oc4ccc(F)cc4)CC3)nc2c1)C(=O)O
> 5.00 | > 6.00 | COc1ccc2cc(CNc3nc4ccc(N)cc4[nH]3)ccc2n1
